Molecular target: T1, SirT1 (Homo sapiens, UniProt Q96EB6)
T1 sequence (Q96EB6 1-747): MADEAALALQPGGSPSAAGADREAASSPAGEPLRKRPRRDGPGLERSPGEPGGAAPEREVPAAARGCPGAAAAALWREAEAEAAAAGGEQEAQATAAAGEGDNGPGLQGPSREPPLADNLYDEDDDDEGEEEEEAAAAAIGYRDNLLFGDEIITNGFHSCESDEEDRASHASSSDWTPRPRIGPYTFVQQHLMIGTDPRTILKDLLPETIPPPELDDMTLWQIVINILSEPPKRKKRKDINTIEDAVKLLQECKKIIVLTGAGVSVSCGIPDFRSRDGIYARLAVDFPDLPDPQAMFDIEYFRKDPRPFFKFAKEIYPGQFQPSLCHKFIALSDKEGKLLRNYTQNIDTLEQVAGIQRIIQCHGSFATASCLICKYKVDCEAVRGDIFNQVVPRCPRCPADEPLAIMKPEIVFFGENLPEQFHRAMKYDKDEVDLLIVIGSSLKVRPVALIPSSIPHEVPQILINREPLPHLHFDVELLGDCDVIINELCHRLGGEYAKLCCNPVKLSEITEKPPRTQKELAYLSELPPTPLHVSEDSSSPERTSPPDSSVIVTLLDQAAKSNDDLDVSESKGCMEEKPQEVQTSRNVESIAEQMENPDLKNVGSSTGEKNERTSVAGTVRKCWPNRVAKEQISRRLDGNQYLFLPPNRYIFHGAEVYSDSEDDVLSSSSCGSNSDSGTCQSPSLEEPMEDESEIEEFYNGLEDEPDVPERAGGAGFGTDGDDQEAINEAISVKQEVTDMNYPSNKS
Experiment: SirT1 p53-382 enzymatic deacetylation assay (fluorogenic Fluor-de-Lys principle)
Format: biochemical
Source text: An exemplary assay method includes a 1536 well format of the SirT1 enzymatic assay that is based on the commercial “Fluor-de-Lys” assay principle by Biomol, which is fluorogenic (www.biomol.com/store/Product_Data_PDFs/ak500.pdf). In this assay, deacetylation of the e-amino function of a lysyl residue is coupled to a fluorogenic “development step that is dependent on the unblocked e-amino functionality and generates fluorescent aminomethylcoumarin. Fluorescence can be read on a commercial macroscopic reader.

SMILES: NC(=O)C1CCCc2c1[nH]c1ccccc21 (stereo not shown) [Compound 5, 2,3,4,9-Tetrahydro-1H-carbazole-1-carboxylic acid amide]
- IC50: 1 to 10 µM
